Test results from publication PMC3791465 (Nature Communications, 2013).

Test system: KPL-3C xenograft in BALB/c nude mice
Assay: KPL-3C orthotopic xenograft tumour growth
Format: in vivo, mouse
Settings: daily 6 μg per day E2, KPL-3C

## C[C@]12CC[C@@H]3c4ccc(O)cc4CC[C@H]3[C@@H]1CC[C@@H]2O [E2, 17-estradiol]
  E2-induced tumour growth by E2 alone: induced time-dependent growth of KPL-3C and MCF-7 tumours
